This passage reports percent of EFA6-Ct in the low-speed pellet with F-actin results from publication PMC6915736.

For this test, the target named is F-actin (actin filaments polymerised from G-actin purified from rabbit muscle) (rabbit) (UniProt P68135). The test can be described thus: co-sedimentation; F-actin and EFA6-Ct, each 4 µM, incubated together for 15 min, low-speed centrifugation (16000 g, 5 min); supernatants and pellets by SDS-PAGE and Coomassie blue; four independent experiments.

As to “N-terminally His-tagged EFA6-Ct (C-terminal domain of EFA6A, residues 490-645) (domain or fragment)”, the percent of EFA6-Ct in the low-speed pellet with F-actin was found to be 24%.
